Here are results for one compound from patent publication US7365095B2, “Chromane and chromene derivatives and uses thereof” (Wyeth, priority 2005, dated 2008).

Protein sequences, listed by entry. Tags and fused reporters are not part of them. Residues count along the entry.
UniProt P28335, 33-458: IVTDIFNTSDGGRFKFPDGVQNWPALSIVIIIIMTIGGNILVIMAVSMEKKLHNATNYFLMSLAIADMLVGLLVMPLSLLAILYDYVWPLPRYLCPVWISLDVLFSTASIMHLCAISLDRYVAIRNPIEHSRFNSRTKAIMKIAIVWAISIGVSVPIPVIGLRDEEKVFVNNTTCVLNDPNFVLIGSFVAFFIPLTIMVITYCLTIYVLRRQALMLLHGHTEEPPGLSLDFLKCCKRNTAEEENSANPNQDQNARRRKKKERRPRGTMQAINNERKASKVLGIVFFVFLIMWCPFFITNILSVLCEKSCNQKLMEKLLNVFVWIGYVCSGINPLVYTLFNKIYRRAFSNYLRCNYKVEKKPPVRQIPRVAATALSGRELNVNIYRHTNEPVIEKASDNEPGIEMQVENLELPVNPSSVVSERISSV

Broadly, the Ki is a measure of affinity in units of concentration, obtained from inhibition or displacement. By EC50 is commonly meant the midpoint of the concentration-response curve.

The target in experiment [1] is T1, human 5-hydroxytryptamine-2C (h5-HT2C) receptor (Homo sapiens, UniProt P28335).
T1 construct: expressed in transfected cells; host or cells: CHO (Chinese Hamster Ovary) cells; membrane preparation
In words: [125I]DOI binding to membranes of CHO cells expressing h5-HT2C receptor. To be noted: reference compounds; 95% confidence interval in brackets; [125I]DOI displacement.

The next experiment has as its target human 5-HT2C receptor (Homo sapiens, UniProt P28335). Conditions: reference compounds; calcium mobilization. (Calcium flux is commonly read through the fluorescence of an indicator in the cells.)

`Clc1cccc(N2CCNCC2)c1` [mCPP, meta-chlorophenylpiperazine, reference compound]: the affinity in experiment [1], expressed as Ki, was 6.5 nM. Moreover, at human 5-HT2C receptor, the EC50 was determined as 5.4 nM.
